# Tb MetRS inh: Trypanosoma brucei MetRS inhibition. purified T. brucei MetRS, ATP depletion, Kinase-Glo luminescence. inhibition, % at 11.9 µM. 0.4% of 360,000 active. AID 624268;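 active means inhibition above a per-plate cutoff of the control wells' mean inhibition plus 3 SD, cut at about 5.5% in these data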;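 further: 0% = DMSO wells median and 100% = median of wells with control inhibitor compound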
#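 Dosing: 11.9 µM compound single dose, 0.9% DMSO; Assay system: purified T. brucei MetRS enzyme; Measured by: Kinase-Glo luciferase luminescence reporting remaining unconsumed ATP; Schedule: 15 min plus 2 h at 25 °C.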
# Pemphigus Ab inh: human desmoglein-3 autoantibody binding inhibition; DSG3-coupled beads, scFv-anti-DSG3-GFP binding, flow cytometry; hits give low values; P32926; binding (percent of control), % at 10 µM; 0.48% of 310,000 active; AID 588358;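 active means binding more than 3 SD below its plate's average and above zero; inconclusive means below that plate limit but binding exactly zero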;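 further: hits lower antibody fragment binding to DSG3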
# UUG fidelity: modulators of yeast start codon fidelity, primary screen, whole organism, S. cerevisiae, single point, plate reader. S. cerevisiae UUG-firefly luciferase reporter, luminescence/redox ratio. activity score, % at 18.7 µM. actives 0.13% (n = 350,000);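 active = replicate mean at a twofold rise or more, about +100% in these data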;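 note: firefly luciferase made from a UUG start codon reports start codon fidelity; reporter light over untreated wells divided by growth signal over untreated wells; some hits fall short of that in this replicate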
# Arrestin-AP2 inh: inhibitors of human beta-arrestin and AP2 interaction; 0.31% of 340,000 active; AID 504490; FITC-arrestin peptide / GST-AP2 beads, flow cytometry; AP2 beta2 appendage carries R879A mutation; inhibition, % at 10 µM;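 active means inhibition above a set limit, near 3 SD of compounds lacking own fluorescence, cut at about 54% in these data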;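 further: plate controls were DMSO wells for no effect and 5 µM unlabelled arrestin peptide for full effect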
#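 Material – AP2 appendage R879A on GSH beads · Buffer or medium – PBS with 0.05% Tween 20 and 0.1% BSA · Probe or stimulus – fluorescein-tagged arrestin peptide at 50 nM final · Incubation – compound with beads 12 min RT, then probe 1 h RT · Detection – high-throughput flow cytometry of beads, ex 488, em 535 nm · Evaluation – percent response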
# Rce1 inh: yeast Ras-converting enzyme inhibition. calls only. 0.27% of 290,000 active. yeast membranes, quenched prenylated peptide cleavage fluorescence;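 active means fall in fluorescence gain of 50% or more versus controls, with final raw signal at or below 3038400; inconclusive means same 50% fall but final raw signal above 3038400; inactive means fall in fluorescence gain under 50%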;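 further: plate controls were neutral control wells for no effect and wells lacking membranes for full effect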
# The depositor's hits bear a star; i = inactive; ? = inconclusive; . = no result; + = active, no number. Most compounds without a hit are left out; they make up all but 1.2% or so of the library.
(1) CO[C@H]1CN(C)C(=O)c2ccc(NS(=O)(=O)c3ccc(Cl)cc3)cc2OC[C@H](C)N(C(=O)NC(C)C)C[C@@H]1C
(2) C=CCN1C(=O)c2ccc(C(=O)N(CC(C)C)c3c(N)n(CCCC)c(=O)[nH]c3=O)cc2C1=O
(3) CCCCn1c(N)c(N(CC(C)C)C(=O)c2ccncc2)c(=O)[nH]c1=O
(4) CN1CCN(C(=O)C2=C[C@@H](C3CC3)C[C@@H](OCCCCO)O2)CC1
(5) O=C(C[C@@H]1CC[C@@H]2[C@H](COC[C@@H](O)CN2C(=O)C2CC2)O1)NCc1ccccc1Cl
(6) COc1ccccc1-n1c(-c2ccccc2)c[nH]c1=S
compound no.	1	2	3	4	5	6
Tb MetRS inh	.	0	0	.	.	0
Pemphigus Ab inh	.	76*	96	.	.	95
Arrestin-AP2 inh	.	-5	4	.	.	-16
UUG fidelity	19	-15	.	7	-3	.
Rce1 inh	.	i	i	.	.	+

(7) Cc1ccc(C2N(C)c3ccccc3-c3nc4ccccc4n32)o1 (stereo not given)
(8) CN1c2ccccc2-c2nc3ccccc3n2C1c1cccs1 (stereo not given)
(9) COc1ccc(-c2cn3ccc4ccccc4c3n2)cc1
(10) COc1ccc(-c2cn3ccccc3n2)cc1
(11) C[C@H](CO)N1C[C@H](C)[C@@H](CN(C)CC2CCCCC2)Oc2ccc(NC(=O)NC3CCCCC3)cc2C1=O
(12) CC1Oc2ccccc2C=C1/C=N/NC(=O)[C@@H](C)NC(=O)OC(C)(C)C (stereo not given in full)
compound no.	7	8	9	10	11	12
Tb MetRS inh	0	1	-1	-3	.	-1
Pemphigus Ab inh	.	100	86*	96	.	96
Arrestin-AP2 inh	20	5	-2	-18	.	-3
UUG fidelity	-24	-16	-27	-38	7	.
Rce1 inh	?	+	i	i	.	+

(13) CCCc1cn(CC[C@@H]2CC[C@H](NS(=O)(=O)c3ccc(-c4ccccc4)cc3)[C@H](CO)O2)nn1
(14) O=C(C[C@H]1C[C@@H]2c3cc(NC(=O)c4ccc5c(c4)OCO5)ccc3O[C@@H]2[C@@H](CO)O1)NCc1cccc(F)c1
(15) O=c1c(-c2ccccc2)c(O)c2ccccc2n1-c1ccccc1
(16) CCCCCn1c(=O)c(-c2nc3ccccc3c(=O)[nH]2)c(O)c2ccccc21
(17) CCn1c(=O)c(-c2cc(=O)[nH][nH]2)c(O)c2ccccc21
(18) CCCCn1c(=O)c(-c2ccccc2)c(O)c2ccccc21
compound no.	13	14	15	16	17	18
Tb MetRS inh	.	.	-2	.	1	0
Pemphigus Ab inh	.	.	114	.	92	.
Arrestin-AP2 inh	.	.	1	.	8	21
UUG fidelity	-10	12	25	.	-20	3
Rce1 inh	.	.	+	i	i	+

(19) CCn1c(=O)c(-c2ccccc2)c(O)c2ccccc21
(20) Cc1noc(C)c1NC(=O)N(C)C[C@H]1Oc2ccc(NC(=O)Cc3cn(C)c4ccccc34)cc2C(=O)N([C@H](C)CO)C[C@H]1C
(21) COc1cccc(NC(=O)N2C[C@H](O)COC[C@H]3O[C@@H](CC(=O)NC4CCCC4)CC[C@@H]32)c1
(22) COCc1cc(C)n(CC(=O)Nc2ccc(Cl)cc2Cl)c(=O)c1C#N
(23) COCc1cc(C)n(CC(=O)Nc2ccccc2OC)c(=O)c1C#N
(24) COc1ccc([N+](=O)[O-])cc1CSc1ccccn1
compound no.	19	20	21	22	23	24
Tb MetRS inh	0	.	.	0	-1	0
Pemphigus Ab inh	102	.	.	-3.1*	.	93
Arrestin-AP2 inh	6	.	.	8	41	-4
UUG fidelity	-16	-6	6	-3	-9	-3
Rce1 inh	+	.	.	i	i	+

(25) COc1cc([N+](=O)[O-])ccc1NC(=O)CSc1ccccn1
(26) CC(=O)Nc1ccc(NC(=O)CSc2nnnn2-c2ccc(F)cc2)cc1
(27) CC(=O)Nc1ccc(-n2nnnc2SCC(=O)NC2CCCC2)cc1
(28) CC(C)C1N=C2c3ccccc3N=C(SCC(=O)NCCc3ccc(S(N)(=O)=O)cc3)N2C1=O (stereo not given)
(29) CC(C)C1N=C2c3ccccc3N=C(SCc3cc(=O)n4cc(Cl)ccc4n3)N2C1=O (stereo not given)
(30) N#Cc1c2ncn(CC(=O)c3ccc(Br)cc3)c(=O)c2c2n1CCC2
compound no.	25	26	27	28	29	30
Tb MetRS inh	0	-1	1	-1	-1	-1
Pemphigus Ab inh	109	61*	107	103	78*	30*
Arrestin-AP2 inh	-16	13	-10	12	20	7
UUG fidelity	.	-5	-15	-25	0	-14
Rce1 inh	i	i	i	i	i	i

(31) N#Cc1c2n(c3c(=O)n(CC(=O)c4ccc(Br)cc4)cnc13)CCCC2
(32) COc1ccc(OCC(=O)NS(=O)(=O)c2ccc(Cl)cc2)cc1
(33) O=C(/C=C/c1ccco1)NC(=S)NNC(=O)c1ccco1
(34) C[C@@H]1CN([C@H](C)CO)S(=O)(=O)c2ccc(C#CC3CC3)cc2O[C@H]1CN(C)Cc1ccncc1
(35) C[C@H]1CN([C@@H](C)CO)C(=O)c2cccc(NS(=O)(=O)c3ccc(F)cc3)c2O[C@H]1CN(C)Cc1ccc(C(F)(F)F)cc1
(36) O=C(O)c1cccc2cc(-c3ccccc3)oc(=O)c12
compound no.	31	32	33	34	35	36
Tb MetRS inh	-1	0	-1	.	.	0
Pemphigus Ab inh	113	94	60*	.	.	96
Arrestin-AP2 inh	5	-2	14	.	.	-7
UUG fidelity	-12	-11	-44	-2	-16	-12
Rce1 inh	i	+	i	.	.	i

(37) O=C(O)c1cccc2cccc(-c3c4ccc(=O)c(O)c-4oc4c(O)c(O)ccc34)c12
(38) COCC(=O)N1C[C@@H]2[C@H](c3ccccc31)[C@H](CO)N2C(=O)Nc1ccccc1Cl
(39) Nc1ccc2nc(-c3ccccc3)[nH]c2c1
(40) Nc1ccc2nc(-c3cccnc3)[nH]c2c1
(41) N#C/C(=C\c1ccc(N2CCOCC2)cc1)c1ccccc1
(42) C[C@@H]1CN([C@H](C)CO)C(=O)c2cc(C3=CCCCC3)cnc2O[C@H]1CN(C)C(=O)Cc1ccncc1
compound no.	37	38	39	40	41	42
Tb MetRS inh	0	.	-2	1	-1	.
Pemphigus Ab inh	13*	.	99	93	-133*	.
Arrestin-AP2 inh	54	.	15	15	19	.
UUG fidelity	.	12	-27	.	-25	-14
Rce1 inh	.	.	+	i	i	.

# Laid out differently: results already given.
# The line under a structure holds: Tb MetRS inh	Pemphigus Ab inh	Arrestin-AP2 inh	UUG fidelity	Rce1 inh
39	Nc1ccc2nc(-c3ccccc3)[nH]c2c1
  -2	99	15	-27	+
40	Nc1ccc2nc(-c3cccnc3)[nH]c2c1
  1	93	15	.	i
41	N#C/C(=C\c1ccc(N2CCOCC2)cc1)c1ccccc1
  -1	-133*	19	-25	i
42	C[C@@H]1CN([C@H](C)CO)C(=O)c2cc(C3=CCCCC3)cnc2O[C@H]1CN(C)C(=O)Cc1ccncc1
  .	.	.	-14	.

# New compounds follow:
(43) Cc1cc(C)nc(NS(=O)(=O)c2ccc(NC(=O)C3COc4ccccc4O3)cc2)n1 (stereo not given)
(44) O=C(Nc1ccc(S(=O)(=O)Nc2ccccc2)cc1)C1COc2ccccc2O1 (stereo not given)
(45) CCCOc1ccc(/C(O)=C2/C(=O)C(=O)N(c3cc(C)on3)C2c2ccc(C(=O)OC)cc2)cc1 (stereo not given)
(46) CCOc1ccc(/C(O)=C2/C(=O)C(=O)N(c3cc(C)on3)C2c2ccc(C(=O)OC)cc2)cc1 (stereo not given)
(47) C[C@H](CO)N1C[C@H](C)[C@H](CN(C)CC2CCCCC2)Oc2c(NC(=O)C3CC3)cccc2C1=O
(48) CSc1nc(NCC(C)O)c2c3c(sc2n1)CN(C)CC3 (stereo not given)
(49) C=C(C)CSc1cc(C)nc2c(-c3ccccc3)c(C)nn12
(50) CCSc1cc(C)nc2c(-c3ccccc3)c(C)nn12
compound no.	43	44	45	46	47	48	49	50
Tb MetRS inh	0	0	0	-2	.	0	0	0
Pemphigus Ab inh	101	118	?	-31*	.	92	113	96
Arrestin-AP2 inh	12	-8	8	10	.	-9	-2	25
UUG fidelity	.	-4	3	-13	-12	4	-21	-12
Rce1 inh	i	+	i	i	.	+	+	i

# Screening results from PubChem BioAssay.
